Experimental data reported in patent US20230137010A1, “LONG-ACTING APOMORPHINE FORMULATIONS AND INJECTORS FOR THERAPEUTIC DELIVERY OF THE SAME” (Scienture, Inc., priority 2020, published 2023).

Assay: Solubility of APO-HCL in organic solvents (O/W microencapsulation solvents and co-solvents for DCM)
Conditions: DCM/DMSO co-solvent systems with only 10-20% DMSO

Solubility for preparation of microspheres with high apomorphine loading: insufficient
SMILES: CN1CCc2cccc3c2[C@H]1Cc1ccc(O)c(O)c1-3 [APO-HCL, apomorphine hydrochloride hemihydrate]

Structures can show the parent of a compound that is named as a salt.
